According to PubChem BioAssay AID504357 (The Scripps Research Institute Molecular Screening Center, 2011):
Only a part is listed here, and it is no random draw. The source made the active and inactive calls. Cut-off read from the data, not from the text of the source: active = inhibition above about 22% (passing the limit was not always enough); inactive = the rest.

Chains of the proteins cited; added tags and fusions are not shown.
UniProt P35372, whole entry, looked up: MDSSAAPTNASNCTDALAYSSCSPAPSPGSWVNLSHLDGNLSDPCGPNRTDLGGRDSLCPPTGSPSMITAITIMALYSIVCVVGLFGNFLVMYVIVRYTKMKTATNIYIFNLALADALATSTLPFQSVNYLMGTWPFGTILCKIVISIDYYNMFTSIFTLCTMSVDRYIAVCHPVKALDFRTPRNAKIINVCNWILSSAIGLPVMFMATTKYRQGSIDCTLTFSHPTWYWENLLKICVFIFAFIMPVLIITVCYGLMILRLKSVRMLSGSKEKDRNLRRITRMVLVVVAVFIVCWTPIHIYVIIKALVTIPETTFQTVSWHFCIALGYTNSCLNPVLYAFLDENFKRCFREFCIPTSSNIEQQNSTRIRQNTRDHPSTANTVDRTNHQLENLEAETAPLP
UniProt P41143, whole entry, looked up: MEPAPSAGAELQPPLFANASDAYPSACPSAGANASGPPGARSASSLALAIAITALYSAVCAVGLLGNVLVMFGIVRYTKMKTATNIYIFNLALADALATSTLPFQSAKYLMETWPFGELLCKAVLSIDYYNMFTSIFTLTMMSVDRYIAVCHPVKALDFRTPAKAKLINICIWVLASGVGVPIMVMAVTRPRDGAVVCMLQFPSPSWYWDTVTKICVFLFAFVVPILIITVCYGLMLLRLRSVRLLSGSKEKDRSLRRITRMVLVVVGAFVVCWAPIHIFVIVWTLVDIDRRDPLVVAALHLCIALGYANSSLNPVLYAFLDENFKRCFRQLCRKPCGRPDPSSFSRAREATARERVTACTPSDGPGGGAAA

target: Mu-type opioid receptor (Homo sapiens) + Delta-type opioid receptor (Homo sapiens) (UniProt P35372+P41143); test: OPRM1-OPRD1 heterodimer inverse agonism – cell-based, luminescence, primary screen (AID 504357); conditions: cell-based MOR-DOR heterodimer luminescence, at 9.3 µM, stronger effect = higher value;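 note: 0% = cells with DMSO and 100% = wells without cells with DMSO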

Row | SMILES | inhibition
1 | CC(Cc1ccc(O)cc1)NCC(O)c1cc(O)cc(O)c1 (stereo unspecified) | inactive: 10.9%
